Values of other authors in paper PMC7160673, “A Degenerate Peptide Library Approach to Reveal Sequence Determinants of Methyllysine-Driven Protein Interactions” (Frontiers in Cell and Developmental Biology, 2020).

Chains of the proteins cited; added tags and fusions are not shown. Residues count along the entry.
UniProt Q99549, 56-121: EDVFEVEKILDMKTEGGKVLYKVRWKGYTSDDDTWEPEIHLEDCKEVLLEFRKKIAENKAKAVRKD

Target: histone H3K9me3 peptide 1-20 (Homo sapiens) (UniProt P68431)
Conditions: cited from earlier work

MPP8 chromodomain (from UniProt Q99549)
Kd: 230 nM
